One assay addresses T1, AtSHMT2 (Arabidopsis thaliana, UniProt Q94C74).
T1 construct: the protein N-truncated at E41; The open reading frames coding for AtSHMT2 41–517 fragment; His6 (N, cleaved yes); made in house; host or cells: E. coli BL21 Gold
T1 sequence (Q94C74 41-517): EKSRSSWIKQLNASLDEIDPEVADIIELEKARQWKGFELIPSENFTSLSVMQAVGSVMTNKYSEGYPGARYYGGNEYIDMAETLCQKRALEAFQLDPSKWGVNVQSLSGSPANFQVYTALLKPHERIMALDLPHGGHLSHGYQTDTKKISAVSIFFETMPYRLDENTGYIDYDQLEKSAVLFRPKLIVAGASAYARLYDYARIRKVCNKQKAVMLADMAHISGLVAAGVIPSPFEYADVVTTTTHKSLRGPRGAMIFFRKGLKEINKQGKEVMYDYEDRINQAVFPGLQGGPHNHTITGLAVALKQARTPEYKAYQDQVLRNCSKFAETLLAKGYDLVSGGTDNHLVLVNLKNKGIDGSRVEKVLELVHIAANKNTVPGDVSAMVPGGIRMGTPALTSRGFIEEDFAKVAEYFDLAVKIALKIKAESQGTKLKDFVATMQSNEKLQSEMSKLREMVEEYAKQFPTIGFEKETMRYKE
Briefly: SHMT forward reaction (serine + THF), coupled assay, initial velocity. Conditions: 30 °C, read-out: KiTHF (THF substrate inhibition constant). It is filed as biochemical.

The target in another assay is T2, AtSHMT4 (Arabidopsis thaliana, UniProt O23254).
T2 construct: The open reading frames coding for AtSHMT2 41–517 fragment and full-length AtSHMT4 were amplified; His6 (N, cleaved yes); made in house; host or cells: E. coli BL21 Gold
T2 sequence (O23254 1-471): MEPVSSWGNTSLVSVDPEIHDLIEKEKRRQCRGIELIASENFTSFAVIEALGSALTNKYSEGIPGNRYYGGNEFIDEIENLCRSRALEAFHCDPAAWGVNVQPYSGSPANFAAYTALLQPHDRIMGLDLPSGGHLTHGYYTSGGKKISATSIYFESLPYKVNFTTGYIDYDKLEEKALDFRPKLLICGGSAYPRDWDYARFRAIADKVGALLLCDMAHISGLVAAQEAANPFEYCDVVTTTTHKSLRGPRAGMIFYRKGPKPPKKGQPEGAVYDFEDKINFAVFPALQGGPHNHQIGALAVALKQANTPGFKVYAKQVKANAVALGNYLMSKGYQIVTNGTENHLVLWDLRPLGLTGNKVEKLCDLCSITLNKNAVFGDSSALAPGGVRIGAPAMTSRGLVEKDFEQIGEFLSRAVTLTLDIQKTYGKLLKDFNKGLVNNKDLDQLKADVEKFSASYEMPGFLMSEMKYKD
The assay is described as above. The assay is classed as biochemical. Conditions: 30 °C, read-out: KiTHF (THF substrate inhibition constant).

Where two headings read alike, the source gives them in different places.

Turning to tetrahydrofolate [THF], the Ki came out at 189 ± 12.8 µM at AtSHMT2 (AtSHMT2, pH 6.5, 30 mM L-serine fixed); 191 ± 9.5 µM on AtSHMT2 (AtSHMT2, pH 7, 30 mM L-serine fixed); 186 ± 11.7 µM on AtSHMT2 (AtSHMT2, pH 8, 30 mM L-serine fixed); 152 ± 8.7 µM on AtSHMT2 (AtSHMT2, pH 8.5, 30 mM L-serine fixed); 127 ± 5.5 µM at AtSHMT2 (AtSHMT2, pH 9.5, 30 mM L-serine fixed); 48.1 ± 9.69 µM on AtSHMT4 (AtSHMT4, pH 6.5, 30 mM L-serine fixed). For the same substance, the Ki turned out to be 57.5 ± 6.56 µM on AtSHMT4 (AtSHMT4, pH 7, 30 mM L-serine fixed); 141 ± 23.2 µM on AtSHMT4 (AtSHMT4, pH 8, 30 mM L-serine fixed); 163 ± 26 µM on AtSHMT4 (AtSHMT4, pH 8.5, 30 mM L-serine fixed); 288 ± 39.2 µM on AtSHMT4 (AtSHMT4, pH 9.5, 30 mM L-serine fixed).

The values are drawn from article PMC6928210, “Structural basis of methotrexate and pemetrexed action on serine hydroxymethyltransferases revealed using plant models” (Scientific Reports, 2019).
